The values that follow are results of earlier work, collected in patent publication US7276339B2 (H. Lundbeck A/S, priority 1998, dated 2007).

The data set deals with NPFF receptors. The conditions noted are these: 10 μM; cited from earlier work.

Turning to `CC(C)C[C@H](NC(=O)CNC(=O)[C@H](C)NC(=O)[C@H](CC(C)C)NC(=O)[C@H](CCCNC(=N)N)NC(=O)[C@H](Cc1c[nH]cn1)NC(=O)[C@@H](NC(=O)[C@@H](NC(=O)[C@@H]1CSSC[C@H](NC(=O)[C@H](C)N)C(=O)N[C@@H](CC(=O)O)C(=O)N[C@@H]([C@@H](C)O)C(=O)N[C@@H](C)C(=O)N[C@@H]([C@@H](C)O)C(=O)N1)C(C)C)[C@@H](C)O)C(=O)N[C@@H](CC(C)C)C(=O)N[C@@H](CO)C(=O)N[C@@H](CCCNC(=N)N)C(=O)N[C@@H](CO)C(=O)NCC(=O)NCC(=O)N[C@H](C(=O)N[C@H](C(=O)N[C@@H](CCCCN)C(=O)N[C@@H](CC(N)=O)C(=O)N[C@@H](CC(N)=O)C(=O)N[C@@H](Cc1ccccc1)C(=O)N[C@H](C(=O)N1CCC[C@H]1C(=O)N[C@H](C(=O)N[C@@H](CC(N)=O)C(=O)N[C@H](C(=O)NCC(=O)N[C@@H](CO)C(=O)N[C@@H](CCCCN)C(=O)N[C@@H](C)C(=O)N[C@@H](Cc1ccccc1)C(N)=O)C(C)C)[C@@H](C)O)C(C)C)C(C)C)C(C)C` [CGRP], the “inhibition of [125I](1DMe)Y8Fa binding” value is “No inhibition”.
